# Ab-95 light chain CDR variants: yeast mating affinities

Data: MIT Lincoln Laboratory AlphaSeq set, Engelhart et al. 2022, doi:10.1038/s41597-022-01779-4, as distributed in FLAb.

Target: peptide PDVDLGDISGINAS, taken from heptad repeat 2 (HR2) of SARS-CoV-2 spike.

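Phage display of a naive human antibody library on the peptide gave the parent. Library AAYL52 holds single substitutions and randomly drawn double and triple substitutions in the CDRs. AlphaSeq pools MATa yeast showing the antibodies with MATalpha yeast showing the peptide. Mating (16 h, 30 °C) was followed by selection of diploids and sequencing of their barcodes. The ratio of observed to expected reads was calibrated, replicate by replicate, on BCL2-family standards whose Kd was known from biolayer interferometry. Each pool was mated in three replicate cultures.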

Parent scFv Ab-95: VH joined to VL by three GGGGS repeats. Changes lie in the light chain CDRs alone.
VH: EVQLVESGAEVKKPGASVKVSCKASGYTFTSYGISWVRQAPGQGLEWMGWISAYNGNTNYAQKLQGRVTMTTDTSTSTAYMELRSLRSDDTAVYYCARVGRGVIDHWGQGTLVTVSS
VL: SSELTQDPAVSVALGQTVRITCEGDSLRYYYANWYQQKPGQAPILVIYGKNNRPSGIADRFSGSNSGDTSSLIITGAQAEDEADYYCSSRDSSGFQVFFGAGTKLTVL

Variants are written as CDR1, CDR2 and CDR3 of the light chain (limits as in the source). Parent: EGDSLRYYYAN, GKNNRPS, SSRDSSGFQVF. Affinities are written as log10 Kd with Kd in nM; a lower number is a better binder. The mean shown is taken over the replicates in which the pair was detected. An entry "nd" has no value in the source: the pair was not observed among the diploids in any replicate. This suggests poor binding but is not conclusive. Parent in this assay: reference entry 2.31, copy in this library 2.25. Nonspecific signal, from three strains lacking the peptide, appeared in 28% of pairings of library AAYL52, centred on 3.91 (5% of these signals below 2.90); values are not corrected for it.

With EGDSLRYYYAN | GKNQRPS | SWRDSSGFQVF the result was 2.80 (3 of 3 replicates).
With EGDSLRYYTAN | GKNNPPM | SSRDSSGFQVF the result was 4.44 (2 of 3 replicates).
With EGDSLRYLYAN | GKNNRPS | SSRDWSRFQVF the result was 2.75 (3 of 3 replicates).
With EGVSLRYYYCN | GKTNRPS | SSRDSSGFQVF the result was 3.71 (3 of 3 replicates).
With EGDSLRYYCAN | GKNNRIS | SSGDSSGFQVF the result was 3.44 (1 of 3 replicates).
With EGKSLRPYGAN | GKNNRPS | SSRDSSGFQVF the result was 2.09 (3 of 3 replicates).
With EGDSLRYYYAN | KKNNRPS | SSVCSSGFQVF the result was nd (0 of 3 replicates).
With EGDSLRYYYAN | FKNNRGS | SSRDFSGFQVF the result was 2.77 (1 of 3 replicates).
With EGDSLRYYYAN | GKNNRPS | SSRVSVGFQVG the result was 2.77 (2 of 3 replicates).
With EGDSLRYYYAN | GKNNRPS | STMDSSGFQVG the result was 2.11 (1 of 3 replicates).
With EGDSLRYYYAN | GKNIRPS | SSRASSGFQVF the result was 1.81 (3 of 3 replicates).
With EGRSLRYYYAN | GKNNRPS | RSRLSSGFQVF the result was 3.13 (1 of 3 replicates).
With EGDSLRYYGAN | GKNNRPL | SHRDSSGFQVF the result was 1.85 (3 of 3 replicates).
With NGDSLRAYYAN | GKNNRPN | SSRDSSGFQVF the result was 1.78 (3 of 3 replicates).
With EGDSLRHCPAN | GKNNRPS | SSRDSSGFQVF the result was 1.97 (3 of 3 replicates).
With EGDMLRYEYAN | GKSNRPS | SSRDSSGFQVF the result was 2.34 (3 of 3 replicates).
With EGDSLRYYYAN | GKNNHPP | SSEDSSGFQVF the result was 3.15 (3 of 3 replicates).
With EGDSLVYYYSN | GKNNRPS | SSTDSSGFQVF the result was 5.59 (1 of 3 replicates).
With EGDSLRDYYAN | GKNERPW | SSRDSSGFQVF the result was 1.60 (3 of 3 replicates).
With EGDSLVYYYAN | GKNNPPS | SSRDSSDFQVF the result was 3.30 (1 of 3 replicates).
With ESDSLRYYYWN | GKNNRPS | SSRDSSNFQVF the result was 4.44 (1 of 3 replicates).
With EGDSLRYDYAN | GKNNRPS | DSRDSFGFQVF the result was 3.68 (2 of 3 replicates).
With EGDSLQYYYAN | GKNSRPS | SSRDSSGFIVF the result was 3.21 (3 of 3 replicates).
With SGDSLREGYAN | GKNNRPS | SSRDSSGFQVF the result was 0.66 (3 of 3 replicates).
With EGDSLRYYYAN | GKNNRPH | SKRASSGFQVF the result was 2.49 (3 of 3 replicates).
With EGDSLRYYYAN | GKNNRPS | SSRDPSGFEVM the result was 2.81 (3 of 3 replicates).
With EGDSLRYYYAN | GENNHPS | SSRDSSGFTVF the result was 3.58 (3 of 3 replicates).
With EYDSLRYYCAN | GKNNRPS | SSRDSSGFAVF the result was 2.71 (2 of 3 replicates).
With EGDSLRYYYAI | GTNNRIS | SSRDSSGFQVF the result was nd (0 of 3 replicates).
With EGDSHRYYYAN | GKNNHPS | SSWDSSGFQVF the result was 3.94 (1 of 3 replicates).
With EGDSLRMYYAN | GKNNRPS | SSCDSSGFCVF the result was 3.45 (3 of 3 replicates).
With EGDALRSYYLN | GKNNRPS | SSRDSSGFQVF the result was 3.35 (1 of 3 replicates).
With EYDSLRYWYKN | GKNNRPS | SSRDSSGFQVF the result was nd (0 of 3 replicates).
With EGDSLRYYYAN | GKNNRPS | SKRDSSGFRIF the result was 3.61 (3 of 3 replicates).
With EGDSLRYYYAN | GKNNFPI | SIRDSSGFQVF the result was 3.87 (1 of 3 replicates).
With SGDSLRYYYAN | GKNNRPQ | SSRDPSGFQVF the result was 1.86 (3 of 3 replicates).
With EGDSLRYYYAR | GKNNRPS | SSRPSTGFQVF the result was nd (0 of 3 replicates).

Excerpt, the first 2 entries:

EGDSLRYYYAN | GKNQRPS | SWRDSSGFQVF: 2.80 (3 of 3 replicates).
EGDSLRYYTAN | GKNNPPM | SSRDSSGFQVF: 4.44 (2 of 3 replicates).